{"sequences": {"note": "The chains behind the UniProt entries cited, without tags or fusion partners. Where a name states a change or a piece, a line headed by the entry shows the natural chain unless it says otherwise. Residues count along the entry.", "UniProt P25440, whole entry": "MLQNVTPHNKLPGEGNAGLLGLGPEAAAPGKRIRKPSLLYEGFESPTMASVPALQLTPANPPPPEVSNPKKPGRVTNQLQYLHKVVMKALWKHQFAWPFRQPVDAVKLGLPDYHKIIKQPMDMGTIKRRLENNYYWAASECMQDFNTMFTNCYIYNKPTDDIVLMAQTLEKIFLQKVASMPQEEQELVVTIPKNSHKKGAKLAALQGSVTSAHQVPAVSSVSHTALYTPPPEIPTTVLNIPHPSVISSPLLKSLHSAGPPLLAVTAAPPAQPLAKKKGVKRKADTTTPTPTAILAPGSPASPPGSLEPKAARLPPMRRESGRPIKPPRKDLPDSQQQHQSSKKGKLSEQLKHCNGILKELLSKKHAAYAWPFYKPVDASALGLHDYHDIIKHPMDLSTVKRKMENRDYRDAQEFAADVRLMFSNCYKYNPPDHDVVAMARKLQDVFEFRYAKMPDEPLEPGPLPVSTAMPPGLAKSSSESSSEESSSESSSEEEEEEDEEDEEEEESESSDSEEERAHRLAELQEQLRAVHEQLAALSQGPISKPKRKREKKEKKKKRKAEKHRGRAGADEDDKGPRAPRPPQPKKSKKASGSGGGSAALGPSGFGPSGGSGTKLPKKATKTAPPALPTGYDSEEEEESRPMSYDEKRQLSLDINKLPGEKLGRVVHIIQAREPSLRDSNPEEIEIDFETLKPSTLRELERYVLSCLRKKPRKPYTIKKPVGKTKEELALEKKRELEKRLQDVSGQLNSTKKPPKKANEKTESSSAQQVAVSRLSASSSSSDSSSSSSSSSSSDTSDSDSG", "UniProt P40337, 54-213 limits assumed": "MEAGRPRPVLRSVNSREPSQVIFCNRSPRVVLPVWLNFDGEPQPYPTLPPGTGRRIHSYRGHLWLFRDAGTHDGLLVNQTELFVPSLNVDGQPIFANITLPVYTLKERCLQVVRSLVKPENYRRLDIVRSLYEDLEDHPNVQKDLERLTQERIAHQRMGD", "UniProt Q15059, whole entry": "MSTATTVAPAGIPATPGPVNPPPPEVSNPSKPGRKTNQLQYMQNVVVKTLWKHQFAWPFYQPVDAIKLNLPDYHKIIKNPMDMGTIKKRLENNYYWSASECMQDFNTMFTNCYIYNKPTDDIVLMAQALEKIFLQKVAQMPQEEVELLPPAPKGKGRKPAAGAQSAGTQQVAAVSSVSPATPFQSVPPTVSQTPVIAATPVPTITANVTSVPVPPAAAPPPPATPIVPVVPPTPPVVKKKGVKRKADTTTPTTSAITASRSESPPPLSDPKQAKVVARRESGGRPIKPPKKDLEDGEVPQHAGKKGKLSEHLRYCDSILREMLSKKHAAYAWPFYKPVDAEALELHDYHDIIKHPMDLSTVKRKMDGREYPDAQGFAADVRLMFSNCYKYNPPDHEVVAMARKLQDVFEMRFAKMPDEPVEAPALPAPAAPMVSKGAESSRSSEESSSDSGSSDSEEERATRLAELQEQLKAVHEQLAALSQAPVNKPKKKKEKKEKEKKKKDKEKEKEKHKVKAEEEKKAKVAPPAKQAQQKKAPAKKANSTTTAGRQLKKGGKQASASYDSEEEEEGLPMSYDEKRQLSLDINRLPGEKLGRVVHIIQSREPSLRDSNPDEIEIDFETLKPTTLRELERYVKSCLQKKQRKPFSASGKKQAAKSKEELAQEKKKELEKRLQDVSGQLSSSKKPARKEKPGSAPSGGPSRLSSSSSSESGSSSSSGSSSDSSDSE"}, "source": "patent US20240252654A1", "about": "“IMPROVED SMALL MOLECULES” (University of Dundee, priority 2020, published 2024)", "key": {"MV4; 11 cells [1]": {"test_system": "MV4; 11 cells", "test": "Correlative cell viability in cMyc-HiBiT MV4;11 cells (CellTiter-Glo)", "conditions": "1 nM, after 6 h"}, "HiBiT-BRD2": {"target": "HiBiT-BRD2 (Homo sapiens, UniProt P25440)", "test": "Live-cell kinetic degradation, CRISPR HiBiT-BRD2 HEK293 cells"}, "[2]": {"test_system": "HiBiT-BET proteins with HaloTag-Ubiquitin", "test": "NanoBRET ubiquitination kinetics", "type": "cell-based, human", "experimental": "Shown in FIG. 2e, the kinetic increase in cellular ubiquitination was more robust for BRD2 as compared to BRD3 and BRD4 after a treatment with 10 nM of compound SIM1.\n(§1) NanoBRET Ubiquitination, Ternary Complex, and Biosensor Experiments. For endogenous live cell BET:Ubiquitin and BET:VHL assays, CRISPR HiBiT-BRD2, HiBiT-BRD3, and HiBiT-BRD4 HEK293 cells stably expressing LgBiT were transfected with 2 μg of HaloTag-UBB or HaloTag-VHL vectors in 6-well plates using FuGENE HD (Promega). For full transient NanoBRET experiments with NanoLuc-BRD4 WT, N433F, or N140F mutants, HEK293 cells (8×10^5) were co-transfected with 0.02 μg NanoLuc-BRD4 and 2 μg of HaloTag-VHL vectors. For transient NanoBRET experiments with the BRD4 NL-BD1-BD2-HT biosensor containing either the WT tandem BD1-BD2 domain (AA 44-460) or containing the N433F mutation, HEK293 cells (8×10^5) were transfected with 0.02 μg biosensor plasmid and 2 μg carrier DNA. […] NanoBRET NanoGlo (Promega) substrate was added and BRET was measured two hours post-compound treatment using a GloMax Discover Microplate Reader (Promega). Dual filtered luminescence was collected with a 460/80 nm bandpass filter and a 610 nm long pass filter (acceptor, HaloTag NanoBRET ligand) using an integration time of 0.5 s. For all NanoBRET experiments, background subtracted NanoBRET ratios expressed in milliBRET units were calculated from the equation: […]"}, "[3]": {"test_system": "HiBiT-BRD2, BRD3, and BRD4", "test": "Degradation washout experiment, CRISPR HiBiT-BET HEK293 cells", "conditions": "monitored 50 h"}, "[4]": {"test_system": "VHL and full-length BRD4 WT, N140F, or N433F", "test": "Kinetic NanoBRET ternary complex assay, NanoLuc-BRD4 with HaloTag-VHL"}, "MV4; 11 cells [5]": {"test_system": "MV4; 11 cells", "test": "Early and late apoptosis by Apotracker Green/DAPI flow cytometry", "conditions": "1 nM, 24 h, versus tenfold higher (R,S)-SIM1, MZ1 or MT1"}, "BRD4 N433F tandem": {"target": "BRD4 N433F tandem (Homo sapiens, UniProt O60885+P40337, N433F)", "test": "ITC, BRD4 tandem titrated into SIM1:VCB", "type": "binding", "conditions": "25° C."}, "BRD4 WT BD1-BD2": {"target": "BRD4 WT BD1-BD2 (Homo sapiens, UniProt O60885+P40337)", "test": "ITC, BRD4 tandem titrated into SIM1:VCB", "type": "binding", "conditions": "25° C."}, "[6]": {"test_system": "HiBiT BET family members with VHL", "test": "NanoBRET ternary complex kinetics, HiBiT-BET with HaloTag-VHL", "type": "cell-based, human", "conditions": "100 nM", "experimental": "Values are expressed as fold increase over DMSO control.\nas §1"}, "[7]": {"test_system": "BRD2, BRD3, BRD4 and Myc in 22Rv1 prostate cancer cell line", "test": "Immunoblot of BET proteins and cMyc in 22Rv1 cells", "conditions": "4 h, compared to MZ1, ARV-771, MT1 and cis-SIM1"}, "VCB": {"target": "VCB (Homo sapiens, UniProt O60885+P40337)", "test": "SPR binding to immobilized biotinylated VCB"}, "22Rv1 cells [8]": {"test_system": "22Rv1 cells", "test": "Clonogenic (colony-formation) assay", "conditions": "10 nM for 24 h, re-plated, 20 days"}, "[9]": {"test_system": "BRD2(1,2), BRD3(1,2), BRD4(1,2) and full-length BRD4", "test": "Phage-based bromodomain displacement assay (BROMOscan)"}, "22Rv1 cells [10]": {"test_system": "22Rv1 cells", "test": "PARP cleavage immunoblot in 22Rv1 cells", "conditions": "22Rv1, 10 nM, 24 h (MT1, MZ1 up to 48 h)"}, "HiBiT-BRD3": {"target": "HiBiT-BRD3 (Homo sapiens, UniProt Q15059)", "test": "Live-cell kinetic degradation, CRISPR HiBiT-BRD3 HEK293 cells"}, "22Rv1 cells [11]": {"test_system": "22Rv1 cells", "test": "Caspase-Glo 3/7 assay", "conditions": "read-out: EC50 (Caspase-Glo); 22Rv1, 24 h"}, "HiBiT-BRD4 [12]": {"target": "T1, HiBiT-BRD4 (Homo sapiens, UniProt O60885)", "test": "NanoBRET target engagement, permeabilized and live cells", "type": "cell-based"}, "HiBiT-BRD4 [13]": {"target": "T1, HiBiT-BRD4", "test": "Live-cell kinetic degradation, CRISPR HiBiT-BRD4 HEK293 cells"}}}
{"compound": "Cc1ncsc1-c1ccc(CNC(=O)[C@@H]2C[C@@H](O)CN2C(=O)[C@@H](NC(=O)COCC(C)(COCCOCCOCCNC(=O)C[C@@H]2N=C(c3ccc(Cl)cc3)c3c(sc(C)c3C)-n3c(C)nnc32)COCCOCCOCCNC(=O)C[C@@H]2N=C(c3ccc(Cl)cc3)c3c(sc(C)c3C)-n3c(C)nnc32)C(C)(C)C)cc1", "values": [{"measurement": "measurable cellular death", "setting": "MV4; 11 cells [1]", "value": "measurable cellular death after 6 h"}, {"measurement": "increase in degradation potency (Dmax50) versus ARV-771 and MZ1", "setting": "HiBiT-BRD2", "value": "80-300 ×"}, {"measurement": "kinetic increase in cellular ubiquitination", "setting": "[2]; 10 nM", "value": "more robust for BRD2 as compared to BRD3 and BRD4"}, {"measurement": "levels of ubiquitination compared with MZ1", "setting": "[2]; 100 nM", "value": "higher levels of ubiquitination of all BET family members"}, {"measurement": "BET protein level after washout", "setting": "[3]; 10 nM for 3.5 h then washout", "value": "partial recovery"}, {"measurement": "BET protein level after washout", "setting": "[3]; 100 nM for 3.5 h then washout", "value": "remained at constant low levels after washout"}, {"measurement": "ternary complex formation", "setting": "[4]; BRD4 N140F mutation", "value": "markedly reduced"}, {"measurement": "ternary complex formation", "setting": "[4]; BRD4 N433F mutation", "value": "almost abolished"}, {"measurement": "ternary complex formation", "setting": "[4]; BRD4 WT", "value": "rapidly formed"}, {"measurement": "early and late apoptosis induction", "setting": "MV4; 11 cells [5]", "value": "much greater degree of both early and late apoptosis"}, {"measurement": "ΔH", "setting": "BRD4 N433F tandem", "value": -48.5, "unit": "kJ/mol"}, {"measurement": "ΔH", "setting": "BRD4 WT BD1-BD2", "value": -83.7, "unit": "kJ/mol"}, {"measurement": "ternary complex formation compared to MZ1", "setting": "[6]", "value": "more robust and sustained ternary complex was observed for BRD2 and BRD4"}, {"measurement": "BET degradation potency and cMyc level suppression", "setting": "[7]", "value": "enhancement in BET degradation potency and cMyc level suppression activity"}, {"measurement": "% Rmax", "setting": "VCB; SIM1:BD1-BD2, 1:1 binding model", "value": "64.7±2.3", "unit": "%"}, {"measurement": "% Rmax", "setting": "VCB; SIM1 alone", "value": 77, "unit": "%"}, {"measurement": "t1/2", "setting": "VCB; ternary complex dissociative half-life", "value": "1.98 ± 0.35", "unit": "min"}, {"measurement": "cytotoxicity in colony-formation assay", "setting": "22Rv1 cells [8]", "value": "significant cytotoxicity"}, {"measurement": "affinity to tandem bromodomain constructs", "setting": "[9]", "value": "picomolar affinity"}, {"measurement": "increase in affinity compared to (R,S)-SIM1", "setting": "[9]", "value": "50-90 ×"}, {"measurement": "PARP cleavage / cell death", "setting": "22Rv1 cells [10]", "value": "Substantial cell death"}, {"measurement": "increase in degradation potency (Dmax50) versus ARV-771 and MZ1", "setting": "HiBiT-BRD3", "value": "2-35 ×"}, {"measurement": "EC50", "setting": "22Rv1 cells [11]", "value": 0.002, "unit": "µM"}, {"measurement": "cell permeability", "setting": "HiBiT-BRD4 [12]; inferred from live versus permeabilized cells", "value": "readily cell-permeable"}, {"measurement": "binding to endogenous HiBiT-BRD4", "setting": "HiBiT-BRD4 [12]; permeabilized cells", "value": "near-identical binding affinities and IC50 values"}, {"measurement": "IC80", "setting": "HiBiT-BRD4 [12]; read-out: IC80 for tracer displacement, live cell format, unit given with each value", "value": 1, "unit": "µM"}, {"measurement": "increase in degradation potency (Dmax50) versus ARV-771 and MZ1", "setting": "HiBiT-BRD4 [13]", "value": "10-20 ×"}]}
